Data: US8183201B2 (priority 2006, dated 2012)

Sequences of proteins named here, by UniProt entry; tags and fusion partners are left off. Residues count along the entry.
UniProt P05106, 27-788: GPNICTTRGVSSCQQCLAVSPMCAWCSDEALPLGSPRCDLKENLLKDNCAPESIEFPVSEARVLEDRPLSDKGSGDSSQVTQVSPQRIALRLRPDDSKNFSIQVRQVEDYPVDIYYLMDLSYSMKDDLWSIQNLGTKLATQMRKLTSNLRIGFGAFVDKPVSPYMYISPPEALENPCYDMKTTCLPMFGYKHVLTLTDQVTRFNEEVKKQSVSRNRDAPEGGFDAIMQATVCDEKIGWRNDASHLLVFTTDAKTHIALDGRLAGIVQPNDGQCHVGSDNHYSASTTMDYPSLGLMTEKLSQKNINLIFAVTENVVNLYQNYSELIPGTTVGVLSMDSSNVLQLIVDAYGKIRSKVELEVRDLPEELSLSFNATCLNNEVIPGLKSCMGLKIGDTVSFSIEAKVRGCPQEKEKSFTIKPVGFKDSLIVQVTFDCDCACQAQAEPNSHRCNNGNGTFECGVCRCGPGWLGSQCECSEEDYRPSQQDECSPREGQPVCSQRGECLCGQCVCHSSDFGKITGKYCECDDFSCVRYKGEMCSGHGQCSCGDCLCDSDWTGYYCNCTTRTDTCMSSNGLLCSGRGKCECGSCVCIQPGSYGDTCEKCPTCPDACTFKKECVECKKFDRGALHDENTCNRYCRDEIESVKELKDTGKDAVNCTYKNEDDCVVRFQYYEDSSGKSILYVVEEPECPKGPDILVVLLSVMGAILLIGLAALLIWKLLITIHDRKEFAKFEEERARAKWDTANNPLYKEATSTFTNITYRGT
UniProt P06756, 31-1048: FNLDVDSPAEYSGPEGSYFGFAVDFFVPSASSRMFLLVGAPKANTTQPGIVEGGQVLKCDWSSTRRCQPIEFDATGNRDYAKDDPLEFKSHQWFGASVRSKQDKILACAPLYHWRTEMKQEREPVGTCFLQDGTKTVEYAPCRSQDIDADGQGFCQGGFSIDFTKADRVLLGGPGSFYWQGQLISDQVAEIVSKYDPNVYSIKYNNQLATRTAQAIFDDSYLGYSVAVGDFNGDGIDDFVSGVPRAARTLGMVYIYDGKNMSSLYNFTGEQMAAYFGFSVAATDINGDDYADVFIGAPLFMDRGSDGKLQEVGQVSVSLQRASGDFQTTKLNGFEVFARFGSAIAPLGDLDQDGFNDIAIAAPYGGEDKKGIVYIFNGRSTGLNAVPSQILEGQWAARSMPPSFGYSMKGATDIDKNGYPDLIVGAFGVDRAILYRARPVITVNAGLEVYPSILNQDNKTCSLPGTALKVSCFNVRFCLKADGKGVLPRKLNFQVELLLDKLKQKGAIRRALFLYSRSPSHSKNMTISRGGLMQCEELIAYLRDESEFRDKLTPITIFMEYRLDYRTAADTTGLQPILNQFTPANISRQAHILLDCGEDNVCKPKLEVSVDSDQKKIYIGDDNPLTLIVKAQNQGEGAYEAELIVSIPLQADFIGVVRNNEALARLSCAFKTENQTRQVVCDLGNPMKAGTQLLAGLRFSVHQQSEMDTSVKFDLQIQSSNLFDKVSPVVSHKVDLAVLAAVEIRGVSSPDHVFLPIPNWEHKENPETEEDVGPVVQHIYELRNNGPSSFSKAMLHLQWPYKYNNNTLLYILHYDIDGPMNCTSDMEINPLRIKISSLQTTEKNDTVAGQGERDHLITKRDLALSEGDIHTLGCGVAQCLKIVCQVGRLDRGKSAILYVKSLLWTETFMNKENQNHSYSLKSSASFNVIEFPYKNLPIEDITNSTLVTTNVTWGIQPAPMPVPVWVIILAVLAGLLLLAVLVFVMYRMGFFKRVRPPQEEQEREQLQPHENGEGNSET
UniProt P08648, 895-1049 partner limits assumed: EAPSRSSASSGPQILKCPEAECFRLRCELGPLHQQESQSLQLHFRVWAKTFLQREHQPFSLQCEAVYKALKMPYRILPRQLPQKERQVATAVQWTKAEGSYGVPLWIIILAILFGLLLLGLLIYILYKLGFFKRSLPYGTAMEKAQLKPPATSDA
UniProt P08648, 42-894 limits assumed: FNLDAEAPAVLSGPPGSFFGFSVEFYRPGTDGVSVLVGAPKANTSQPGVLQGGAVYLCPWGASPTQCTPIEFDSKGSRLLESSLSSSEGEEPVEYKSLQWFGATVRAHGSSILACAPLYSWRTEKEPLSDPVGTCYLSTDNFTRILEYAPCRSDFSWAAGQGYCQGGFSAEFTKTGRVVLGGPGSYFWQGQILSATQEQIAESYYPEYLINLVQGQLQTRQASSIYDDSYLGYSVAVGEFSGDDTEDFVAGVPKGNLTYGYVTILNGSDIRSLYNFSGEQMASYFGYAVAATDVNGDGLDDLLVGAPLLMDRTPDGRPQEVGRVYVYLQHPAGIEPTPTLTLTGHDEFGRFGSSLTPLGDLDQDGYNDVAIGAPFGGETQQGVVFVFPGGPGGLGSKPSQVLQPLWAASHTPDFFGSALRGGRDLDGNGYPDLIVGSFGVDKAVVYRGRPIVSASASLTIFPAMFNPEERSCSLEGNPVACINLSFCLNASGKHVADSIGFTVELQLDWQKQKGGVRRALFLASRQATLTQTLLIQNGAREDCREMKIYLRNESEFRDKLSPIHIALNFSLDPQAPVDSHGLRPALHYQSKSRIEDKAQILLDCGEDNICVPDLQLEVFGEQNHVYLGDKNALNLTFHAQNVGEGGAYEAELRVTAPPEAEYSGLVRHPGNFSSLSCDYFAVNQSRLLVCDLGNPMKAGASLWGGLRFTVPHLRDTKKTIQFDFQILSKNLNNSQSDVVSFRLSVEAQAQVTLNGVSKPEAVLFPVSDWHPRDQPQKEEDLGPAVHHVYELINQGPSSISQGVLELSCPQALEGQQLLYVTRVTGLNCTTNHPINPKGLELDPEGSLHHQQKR

Columns and labels:
Type in all cases: cell-based
platelet aggregation = platelet aggregation (Homo sapiens, UniProt P05106+P08514)
integrin αIIbβ3 = target: T1, integrin αIIbβ3 (Homo sapiens, UniProt P05106+P08514)
T1 construct: host or cells: CHO (CHO-αIIbβ3)

integrin αvβ3 = integrin αvβ3 (UniProt P05106+P06756)
integrin α5β1 = target: T2, integrin α5β1 (Homo sapiens, UniProt P05556+P08648)
T2 construct: Human erythroleukemia K562 cells were purchased from ATCC; host or cells: K562

Substance: RD: rhodostomin variant having a RGD motif variant ^48PRLDMP^53, SEQ ID NO: 36
- IC50 (platelet aggregation): 433 nM
- IC50 (integrin αIIbβ3; read-out: IC50 αIIbβ3): 2220 nM
- IC50 (integrin αIIbβ3; read-out: IC50 αllbβ3/Fg): 2220 nM
- IC50 (integrin αvβ3; read-out: IC50 αvβ3): 35 nM
- IC50 (integrin αvβ3; read-out: IC50 αvβ3/Fg): 35 nM
- IC50 (integrin α5β1; read-out: IC50 α5β1): 3040 nM
- IC50 (integrin α5β1; read-out: IC50 α5β1/Fn): 3040 nM

Like-named read-outs stand apart in the source and are kept apart here.
